The values below come from patent publication US11466010B2, “Toll-like receptor 8 (TLR8) specific antagonists and methods of making and uses thereof” (The Regents of the University of Colorado, a body corporate, priority 2017, dated 2022).

Amino acid sequences for entries named in this document (tags omitted). Residues count along the entry.
UniProt Q9NR97, 27-1041 limits assumed: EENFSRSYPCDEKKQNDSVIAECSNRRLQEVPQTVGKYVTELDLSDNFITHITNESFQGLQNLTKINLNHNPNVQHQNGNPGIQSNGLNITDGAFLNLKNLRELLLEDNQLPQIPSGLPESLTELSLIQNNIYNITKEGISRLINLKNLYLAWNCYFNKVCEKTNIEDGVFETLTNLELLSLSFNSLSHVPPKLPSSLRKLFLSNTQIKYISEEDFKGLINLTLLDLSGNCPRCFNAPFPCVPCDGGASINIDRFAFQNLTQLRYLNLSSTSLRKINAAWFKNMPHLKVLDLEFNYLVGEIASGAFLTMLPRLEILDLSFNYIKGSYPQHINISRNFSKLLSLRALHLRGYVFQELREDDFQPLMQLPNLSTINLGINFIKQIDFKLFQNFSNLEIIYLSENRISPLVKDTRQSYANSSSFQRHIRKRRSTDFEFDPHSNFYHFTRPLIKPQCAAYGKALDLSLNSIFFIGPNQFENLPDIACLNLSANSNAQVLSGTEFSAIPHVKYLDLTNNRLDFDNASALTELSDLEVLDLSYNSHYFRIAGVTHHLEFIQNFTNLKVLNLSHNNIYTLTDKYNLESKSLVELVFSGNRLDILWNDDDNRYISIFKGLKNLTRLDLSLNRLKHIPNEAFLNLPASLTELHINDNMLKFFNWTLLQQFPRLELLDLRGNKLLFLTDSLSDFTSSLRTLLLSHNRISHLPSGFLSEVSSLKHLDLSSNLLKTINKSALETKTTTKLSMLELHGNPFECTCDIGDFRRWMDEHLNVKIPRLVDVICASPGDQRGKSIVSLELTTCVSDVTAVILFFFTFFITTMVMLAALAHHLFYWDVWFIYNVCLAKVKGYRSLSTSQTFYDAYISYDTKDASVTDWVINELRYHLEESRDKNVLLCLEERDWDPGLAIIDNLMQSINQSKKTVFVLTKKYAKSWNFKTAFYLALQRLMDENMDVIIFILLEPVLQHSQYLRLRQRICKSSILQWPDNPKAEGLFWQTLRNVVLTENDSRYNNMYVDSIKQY
UniProt Q9NYK1, 27-1049 limits assumed: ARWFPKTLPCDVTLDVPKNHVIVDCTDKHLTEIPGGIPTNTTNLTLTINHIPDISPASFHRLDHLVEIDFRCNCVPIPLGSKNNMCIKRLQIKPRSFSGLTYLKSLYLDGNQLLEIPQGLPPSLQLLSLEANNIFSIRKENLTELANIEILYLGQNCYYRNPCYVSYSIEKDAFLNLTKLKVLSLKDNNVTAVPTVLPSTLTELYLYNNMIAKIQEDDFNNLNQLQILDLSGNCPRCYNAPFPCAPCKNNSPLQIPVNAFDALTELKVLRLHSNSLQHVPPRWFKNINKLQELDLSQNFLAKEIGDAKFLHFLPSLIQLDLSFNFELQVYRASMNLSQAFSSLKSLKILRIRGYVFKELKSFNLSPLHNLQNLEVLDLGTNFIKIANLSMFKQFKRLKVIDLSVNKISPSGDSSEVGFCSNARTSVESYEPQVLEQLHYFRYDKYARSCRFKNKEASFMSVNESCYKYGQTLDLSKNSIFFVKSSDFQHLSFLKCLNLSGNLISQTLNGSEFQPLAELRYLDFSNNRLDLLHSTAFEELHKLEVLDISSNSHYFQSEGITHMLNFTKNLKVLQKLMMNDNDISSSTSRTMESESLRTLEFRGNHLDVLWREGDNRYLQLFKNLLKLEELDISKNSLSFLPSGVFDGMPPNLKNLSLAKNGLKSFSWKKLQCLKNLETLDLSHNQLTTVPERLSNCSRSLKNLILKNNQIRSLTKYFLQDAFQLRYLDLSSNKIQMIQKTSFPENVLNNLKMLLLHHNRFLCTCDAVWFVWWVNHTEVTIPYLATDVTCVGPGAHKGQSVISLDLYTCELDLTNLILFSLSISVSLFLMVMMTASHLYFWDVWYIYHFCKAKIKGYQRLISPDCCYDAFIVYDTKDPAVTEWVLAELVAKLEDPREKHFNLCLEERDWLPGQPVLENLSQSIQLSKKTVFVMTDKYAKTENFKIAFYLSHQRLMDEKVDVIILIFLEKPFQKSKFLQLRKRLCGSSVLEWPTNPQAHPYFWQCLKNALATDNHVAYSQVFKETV

Data set [1] addresses human TLR8 (Homo sapiens, UniProt Q9NR97). As to the kind of experiment: SEAP reporter assay in HEK-Blue TLR8 cells, R848-induced TLR8 signaling. The format is cell-based. To be noted: for IC50: R848 as agonist. (In a reporter assay the amount or activity of a reporter protein is the signal.)
The test system of data set [2] is HEK-Blue TLR8 cells. As to the kind of experiment: WST-1 cell proliferation (cytotoxicity) assay. To be noted: 24 h. For orientation: Tetrazolium assays rely on reduction of a dye to a coloured formazan, in cell work by metabolically active cells.
In data set [3] the test system is TLR1/2, TLR2/6, TLR3, TLR4, TLR5, TLR7, TLR9. In words: TLR selectivity assay (SEAP) in HEK-Blue cells overexpressing individual TLRs. Format: cell-based, human. Particulars: 1 μM; HEK-Blue cells overexpressing each individual TLR.
In data set [4] the target is TLR7 (Homo sapiens, UniProt Q9NYK1). As to the kind of experiment: SEAP assay in HEK-Blue TLR7 cells activated by R848. Format: cell-based. To be noted: concentrations up to 75 μM.
In data set [5] the test system is TLR8-mediated TNF-α and IL-8 mRNA. As to the kind of experiment: RT-PCR of TNF-α and IL-8 mRNA in R848 treated HEK-Blue TLR8 cells. Particulars: 1 μM.
The subject of data set [6] is TLR8-mediated TNF-α production in THP-1 cells. In words: R848-induced TNF-α production in differentiated THP-1 monocytes. To be noted: read-out: IC50 of R848-induced TNF-α production.
Data set [7] deals with TLR8-mediated TNF-α production in PBMC cells. As to the kind of experiment: R848-induced TNF-α secretion in PBMCs. Particulars: 1 μg/mL R848; dose-dependent; 4a at 50 μM.
Data set [8] has as its system TNF-α and IL-1β release from synovial cells of OA patients. In words: Spontaneous cytokine release from synovial cells of osteoarthritis patients. Particulars: 24 h.
The subject of data set [9] is synovial cells isolated from osteoarthritis (OA) patients. As to the kind of experiment: Cytotoxicity on synovial cells from OA patients. To be noted: up to 100 μM.
Data set [10] concerns TNF-α production in PBMCs from RA patients. As to the kind of experiment: TNF-α level in PBMCs harvested from RA patients. To be noted: PBMCs from RA patients and one AOSD patient; dose-dependent.

SMILES strings stand for the structures.

Usually IC50 stands for the midpoint of a concentration-inhibition curve. Take `COc1ccc2c(-c3ccc(OCCCCO)c(C)c3)ccnc2c1`: the IC50 in [1] was found to be 0.1 nM.

In data set [1], `COc1ccc2c(-c3cnc(OCc4ccccc4)c(C)c3)ccnc2c1` gave an IC50 of 0.8 nM.

Regarding `Cc1cccc(-c2ccnc3c(C(N)=O)cnn23)c1`, the “fold stronger inhibitory activity than hit compound 6a” value in data set [1] is reported as 2 fold. For the same molecule, the cytotoxicity entry in data set [2] is “negligible cytotoxicity”. Also, the “inhibition of any TLR other than TLR8” value in data set [3] is recorded as “did not show significant inhibition”. Moreover, the “TLR7 signaling (TLR7-mediated NF-κB activation)” value in [4] is on record as “not affected”. Moreover, the “elevation of TNF-α and IL-8 mRNA levels induced by R848” value in [5] is given as “completely abolished”. Also, the IC50 in [6] was 90 nM. Moreover, in data set [7], the “R848-induced TNF-α secretion of PBMCs” value is “reversed”. The “spontaneous release of TNF-α and IL-1β from synovial membrane cultures” value in data set [8] was “significant inhibitory effects”. Besides, the “cytotoxicity in synovial cells” value in [9] is “little cytotoxicity”. Also, the “TNF-α level in patient PBMCs” value in data set [10] was “significantly suppressed”.
